Chains of the proteins cited; added tags and fusions are not shown. Lines headed by an entry give the natural chain unless they say otherwise; changes in a name come on top.
UniProt Q13131: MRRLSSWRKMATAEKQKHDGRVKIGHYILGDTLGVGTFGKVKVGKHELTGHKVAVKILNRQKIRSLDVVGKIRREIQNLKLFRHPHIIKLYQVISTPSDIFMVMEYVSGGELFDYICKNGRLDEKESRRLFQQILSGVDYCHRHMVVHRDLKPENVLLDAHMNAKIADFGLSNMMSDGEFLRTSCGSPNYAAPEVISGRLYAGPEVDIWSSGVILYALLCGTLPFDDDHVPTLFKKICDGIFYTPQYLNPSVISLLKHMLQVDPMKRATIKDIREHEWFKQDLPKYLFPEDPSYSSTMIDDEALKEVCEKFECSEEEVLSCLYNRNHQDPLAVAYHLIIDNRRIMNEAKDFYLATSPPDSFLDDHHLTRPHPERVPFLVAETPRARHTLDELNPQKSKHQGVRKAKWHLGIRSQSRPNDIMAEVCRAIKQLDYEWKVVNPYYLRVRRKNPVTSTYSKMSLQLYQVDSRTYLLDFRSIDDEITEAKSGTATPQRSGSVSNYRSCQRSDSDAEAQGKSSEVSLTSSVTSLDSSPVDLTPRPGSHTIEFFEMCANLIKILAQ
UniProt Q9Y478: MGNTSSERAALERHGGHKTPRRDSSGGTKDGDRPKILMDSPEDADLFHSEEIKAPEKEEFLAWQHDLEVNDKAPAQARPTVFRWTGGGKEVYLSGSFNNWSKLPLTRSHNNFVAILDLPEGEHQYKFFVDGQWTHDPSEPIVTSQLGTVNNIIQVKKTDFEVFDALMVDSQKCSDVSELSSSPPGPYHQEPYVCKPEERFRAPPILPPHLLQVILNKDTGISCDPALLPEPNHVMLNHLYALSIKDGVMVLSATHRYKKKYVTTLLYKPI

In patent US11407768B2, “AMPK activators” (Kallyope, Inc., priority 2020, dated 2022):

Molecular target: Recombinant AMPK α1/β1/γ1 complex (Homo sapiens (Human), UniProt Q13131+Q9Y478)
Assay: In vitro pAMPK1 kinase activation assay (ADP-Glo, SAMS peptide)
Format: biochemical
Conditions: AMPK α1/β1/γ1 pre-activated with CAMKK2; 12-point curve; 15 min compound incubation

## O=C(NCCNc1cccc2c(S(=O)(=O)O)cccc12)c1ccc(-c2ccc(-c3nc4nc(O[C@@H]5CO[C@H]6[C@@H]5OC[C@H]6O)[nH]c4cc3Cl)cc2)cc1 [Compound 10]
  EC50: 0.4 nM
